# Test results taken from PubChem BioAssay AID1259251 (The Scripps Research Institute Molecular Screening Center, 2017).
# Protein sequences, listed by entry. Tags and fused reporters are not part of them.
# UniProt O75385, whole entry: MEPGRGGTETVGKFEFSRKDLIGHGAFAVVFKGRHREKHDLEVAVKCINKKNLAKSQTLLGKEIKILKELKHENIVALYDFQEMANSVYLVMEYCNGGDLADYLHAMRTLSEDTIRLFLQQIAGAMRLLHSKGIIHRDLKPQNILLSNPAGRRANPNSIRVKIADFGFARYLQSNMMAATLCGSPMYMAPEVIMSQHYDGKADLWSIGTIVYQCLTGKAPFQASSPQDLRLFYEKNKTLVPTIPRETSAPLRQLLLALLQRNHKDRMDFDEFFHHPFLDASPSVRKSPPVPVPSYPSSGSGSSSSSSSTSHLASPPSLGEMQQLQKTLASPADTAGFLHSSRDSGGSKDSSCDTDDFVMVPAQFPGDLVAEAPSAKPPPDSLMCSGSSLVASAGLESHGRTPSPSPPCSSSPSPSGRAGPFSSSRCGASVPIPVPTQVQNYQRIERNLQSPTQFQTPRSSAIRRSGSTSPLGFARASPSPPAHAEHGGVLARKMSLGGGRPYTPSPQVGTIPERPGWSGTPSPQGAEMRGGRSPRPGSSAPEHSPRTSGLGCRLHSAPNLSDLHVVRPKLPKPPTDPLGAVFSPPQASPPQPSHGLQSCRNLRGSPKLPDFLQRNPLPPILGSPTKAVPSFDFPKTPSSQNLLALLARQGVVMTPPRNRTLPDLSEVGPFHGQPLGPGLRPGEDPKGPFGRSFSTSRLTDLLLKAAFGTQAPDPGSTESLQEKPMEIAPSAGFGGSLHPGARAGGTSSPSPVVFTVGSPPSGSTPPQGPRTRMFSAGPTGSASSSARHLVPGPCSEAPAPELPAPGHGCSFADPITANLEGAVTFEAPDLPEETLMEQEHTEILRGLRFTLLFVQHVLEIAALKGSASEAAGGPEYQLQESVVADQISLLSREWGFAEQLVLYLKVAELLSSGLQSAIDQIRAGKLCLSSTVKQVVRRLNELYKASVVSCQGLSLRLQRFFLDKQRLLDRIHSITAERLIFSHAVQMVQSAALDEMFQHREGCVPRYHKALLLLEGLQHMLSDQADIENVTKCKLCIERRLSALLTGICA
# This is a selection; strong and weak results do not stand in their true shares. The source made the active and inactive calls. Rule as the data show it: active = inhibition above about 43%; inactive = the rest.
# Molecular target: Serine/threonine-protein kinase ULK1 (Homo sapiens) (UniProt O75385)
# Assay: ULK1 kinase inhibitors, primary screen, biochemical, AlphaScreen (AID 1259251);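 also: 0% = median of compound wells and 100% = no enzyme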
# Conditions: AlphaScreen Atg13 phosphorylation by ULK1, luminescence; at 5.96 µM; stronger effect = higher value
row,SMILES,inhibition
1,CCC(=O)N(c1ccccc1)C1(COC)CCN(CCc2cccs2)CC1,inactive: 8.99%
2,CCC(=O)N(c1ccccc1)C1(COC)CCN(CCn2nnn(CC)c2=O)CC1,inactive: 4.69%
3,CN(CCCl)CCCl,inactive: -4.39%
